{"source": "patent US20200354411A1", "about": "“Chimeric Molecule for Targeting c-Myc in Cells” (priority 2017, published 2020)", "target": "c-Myc, P01106", "test": "cell-based or functional assay"}
{"binder": "GRKKRRQRRRPPQNELKRAFAALRDQI (modifications not checked)", "note": "[Tat-H1 (TAT cell targeting peptide fused to H1)]", "values": [{"measurement": "decrease in Myc reporter activity at 1 mM", "value": "< 75", "unit": "%"}]}
